The record followed here is patent US20180209979A1, “METHOD FOR INDIVIDUALIZED CANCER THERAPY” (INSERM (INSTITUT NATIONAL DE LA SANTE ET DE LA RECHERCHE), priority 2015, published 2018).

This assay concerns CAL33 cells. As to conditions: erlotinib 0.1 μmol/L; TRF2 knocked-down with sh2; four days; FIG. 8.

Each structure is given as a SMILES string.

On to `C#Cc1cccc(Nc2ncnc3cc(OCCOC)c(OCCOC)cc23)c1` [erlotinib], for which the “CAL33 proliferation (MTT)” value was “inhibited CAL33 proliferation”.
